The results in this text go back to paper PMC9319560 (Viruses, 2022).

The test system of this experiment is IFN-λ. The experiment is described as follows: Type III interferon quantification using HEK-Blue IFN-λ cells. It counts as cell-based, human. Conditions: NHEK, WNV MOI 0.1, 48 h, 1 or 10 µg/mL peptide, HEK-Blue IFN-λ reporter cells, versus infected cells alone; 4 independent experiments.

Turning to LL-37, the “secretion levels of IFNs-λ in the cell culture supernatants” value was “enhanced interferon secretion”.

As for “hBD-3 (GIINTLQKYYCRVRGGRCAVLSCLPKEEQIGKCSTRGRKCCRRKK; Beta-defensin 103; UniProt P81534 23-67, looked up) [type 3 human β-defensin, skin antimicrobial peptide; purchased from PeproTech]”, the “secretion levels of IFNs-λ in the cell culture supernatants” value was “increase was significant”.
